Data as given in article PMC9307851.

Molecular target: Flag-tagged full-length DNMT3B (isoform 1), wild type, purified from QKO mESCs (human) (UniProt Q9UBC3)
Assay: SEC; Flag-DNMT3B purified from QKO mESCs on anti-Flag M2 beads; Superose 6 Increase 10/300 GL; 25 mM HEPES pH 7.5, 400 mM NaCl, 5% glycerol, 5 mM DTT; fractions immunoblotted with anti-DNMT3B

Substance “Flag-tagged full-length DNMT3B (isoform 1), wild type, purified from QKO mESCs (from UniProt Q9UBC3-1 1-853) (natural protein)” has a stoichiometry N of 4.
